{"source": "patent US20050009772A1", "about": "“Methods and compositions for the treatment of glaucoma and other retinal diseases” (The Regents of the University of California, priority 2003, published 2005)", "experiment": "Body weight monitoring in Experiment 2", "assay_type": "in vivo, rat", "method": "Experiment 2 was performed to investigate whether the induction of HSP72 by GGA enhances RGC survival and protects optic nerve axons in a rat glaucoma model. After pretreatment with GGA (200 mg/kg daily) for 7 days, trabecular laser photocoagulation was performed on one eye of each rat (intracameral injection of India ink was performed 5 days before photocoagulation), while the contralateral eye remained untreated. GGA was then given twice a week at the same dose until euthanasia. Sustained elevation of intraocular pressure (IOP) was maintained by performing trabecular laser photocoagulation three weeks after the first photocoagulation. To elucidate the role of HSP expression in the neuroprotective effects of GGA, systemic administration of quercetin at 4 mg/kg was given in the same manner as GGA. Administrations of saline-vehicle, GGA, or GGA with 4 mg/kg of quercetin without trabecular laser photocoagulation were included as controls. IOP and body weight were measured once a week. After 5 weeks of IOP elevation, the number of retrogradely labeled RGCs with dextran tetramethylrhodamine (DTMR) was counted (n=53). The grading of optic nerve injury and the counting of cresyl violet-stained cells in the retinal ganglion cell layer (RGCL) was also performed (n=54).", "data": [{"substance": "Geranylgeranylacetone [GGA]", "values": [{"measurement": "Weight", "setting": "0 week", "value": "379 ± 8", "unit": "g"}, {"measurement": "Weight", "setting": "1 week", "value": "400 ± 9", "unit": "g"}, {"measurement": "Weight", "setting": "2 week", "value": "424 ± 9", "unit": "g"}, {"measurement": "Weight", "setting": "3 week", "value": "448 ± 11", "unit": "g"}, {"measurement": "Weight", "setting": "4 week", "value": "454 ± 12", "unit": "g"}, {"measurement": "Weight", "setting": "5 week", "value": "471 ± 12", "unit": "g"}, {"measurement": "percentage increase of body weight", "setting": "from first day of injection (1 week before first laser) to euthanasia (5 weeks after first laser)", "value": 27, "unit": "%"}, {"measurement": "gain in body weight, difference among groups", "setting": "vehicle, GGA, GGA with quercetin groups", "value": "no statistically significant difference"}, {"measurement": "Weight", "setting": "−1 week", "value": "371 ± 6", "unit": "g"}]}]}
